Assay results taken from patent US8569306B2, “JNK modulators” (Hoffmann-La Roche, Inc., priority 2009, dated 2013).

Protein sequences, listed by entry. Tags and fused reporters are not part of them. Lines headed by an entry give the natural chain unless they say otherwise; changes in a name come on top.
UniProt P45984: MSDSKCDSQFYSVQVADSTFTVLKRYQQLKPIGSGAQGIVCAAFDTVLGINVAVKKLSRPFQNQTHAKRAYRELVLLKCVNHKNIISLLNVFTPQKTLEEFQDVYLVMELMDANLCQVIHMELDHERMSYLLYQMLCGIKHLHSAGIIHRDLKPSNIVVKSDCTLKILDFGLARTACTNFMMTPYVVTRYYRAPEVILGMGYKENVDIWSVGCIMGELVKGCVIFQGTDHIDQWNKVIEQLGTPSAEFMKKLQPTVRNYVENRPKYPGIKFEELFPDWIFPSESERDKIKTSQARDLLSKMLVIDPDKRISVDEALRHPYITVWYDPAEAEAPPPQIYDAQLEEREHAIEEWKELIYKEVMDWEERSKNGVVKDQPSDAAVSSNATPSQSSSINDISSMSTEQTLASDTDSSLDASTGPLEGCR

Molecular target: Human JNK2α2 (Homo sapiens (Human), UniProt P45984)
Test: JNK assay in vitro, phosphorylation of GST-ATF2 (19-96) with [γ-33P] ATP
Assay type: biochemical
Settings: Human JNK2α2, 1 nM enzyme, 1 μM ATF2, 8 μM ATP; read-out: JNK2 − IC50
Description: JNK activity was measured by phosphorylation of GST-ATF2 (19-96) with [γ-^33P] ATP. The enzyme reaction was conducted at Km concentrations of ATP and the substrate at final volume of 40 μl in buffer containing 25 mM HEPES, pH 7.5, 2 mM dithiothreitol, 150 mM NaCl, 20 mM MgCl2, 0.001% Tween® 20, 0.1% BSA and 10% DMSO. Human JNK2α2 assay contains 1 nM enzyme, 1 μM ATF2, 8 μM ATP with 1 μCi [γ-^33P] ATP. Human JNK1α1 assay contains 2 nM enzyme, 1 μM ATF2, 6 μM ATP with 1 μCi [γ-^33P] ATP. Human JNK3 (Upstate Biotech #14-501M) assay contains 2 nM enzyme, 1 μM ATF2, 4 μM ATP with 1 μCi [γ-^33P] ATP. The enzyme assay was carried out in the presence or absence of several compound concentrations. JNK and compound were pre-incubated for 10 min, followed by initiation of the enzymatic reaction by adding ATP and the substrate. The reaction mixture was incubated at 30° C. for 30 min. […] The incorporation of ^33P into ATF2 was quantified on a microplate scintillation counter (Packard Topcount). Compound inhibition potency on JNK was measured by IC50 value generated from ten concentration inhibition curves fitted into the 3-parameter model: % inhibition=Maximum/(1+(IC50/[Inhibitor])^slope). Data were analyzed on Microsoft Excel for parameter estimation.

IC50: 123 nM
SMILES: CC(C)(O)c1cccn2c(-c3ccnc(N[C@H]4CC[C@H](NS(C)(=O)=O)CC4)n3)cnc12 [Compound 3, N-(4-{4-[8-(1-Hydroxy-1-methyl-ethyl)-imidazo[1,2-a]pyridine-3-yl]-pyrimidin-2-ylamino}-cyclohexyl)-methanesulfonamide]
